Columns and labels:
human μ opiate receptor = human μ opiate receptor (Homo sapiens, UniProt P35372); assay: μ binding, displacement of [3H]-naloxone; conditions: CHO-K1 membranes expressing human μ opiate receptor; for % inhibition (μ) at 1 μM: 1 μM test compound; for Ki: read-out: Ki [μM] (μ), Cheng-Prusoff
ORL1 receptor = ORL1 receptor (Homo sapiens, UniProt P41146); assay: ORL1 receptor binding assay with 3H-nociceptin/orphanin FQ; conditions: membranes from recombinant CHO-ORL1 cells; for % inhibition (ORL1) at 1 μM: 1 μM test compound; for Ki: read-out: Ki [μM] (ORL1)

Chains of the proteins cited; added tags and fusions are not shown. Lines headed by an entry give the natural chain unless they say otherwise; changes in a name come on top.
UniProt P35372, whole entry, looked up: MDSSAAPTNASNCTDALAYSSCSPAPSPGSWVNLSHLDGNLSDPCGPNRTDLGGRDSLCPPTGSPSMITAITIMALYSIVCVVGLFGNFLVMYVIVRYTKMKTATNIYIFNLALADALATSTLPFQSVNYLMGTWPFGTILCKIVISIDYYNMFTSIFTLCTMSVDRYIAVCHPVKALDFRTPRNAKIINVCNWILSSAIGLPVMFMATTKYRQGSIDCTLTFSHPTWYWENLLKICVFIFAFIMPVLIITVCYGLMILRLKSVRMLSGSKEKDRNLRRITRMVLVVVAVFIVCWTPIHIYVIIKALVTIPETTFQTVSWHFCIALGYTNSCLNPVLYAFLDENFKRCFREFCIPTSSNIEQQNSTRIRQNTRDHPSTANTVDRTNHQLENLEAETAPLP
UniProt P41146: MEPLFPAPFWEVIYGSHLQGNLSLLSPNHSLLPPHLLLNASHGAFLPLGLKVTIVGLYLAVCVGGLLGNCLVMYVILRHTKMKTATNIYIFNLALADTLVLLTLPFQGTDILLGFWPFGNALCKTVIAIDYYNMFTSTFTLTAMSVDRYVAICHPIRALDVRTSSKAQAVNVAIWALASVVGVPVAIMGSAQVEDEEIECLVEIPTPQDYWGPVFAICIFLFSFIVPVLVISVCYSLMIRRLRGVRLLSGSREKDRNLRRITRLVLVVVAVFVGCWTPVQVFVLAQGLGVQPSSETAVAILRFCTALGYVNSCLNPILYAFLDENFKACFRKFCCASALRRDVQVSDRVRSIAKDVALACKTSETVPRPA

Compound | % inhibition (μ) at 1 μM (human μ opiate receptor) | % inhibition (ORL1) at 1 μM (ORL1 receptor) | further results
CN(C)C1(Cc2ccccc2)CC=C(c2[nH]c3ccccc3c2CC2CCCCC2)CC1 (racemic) | 20% |  | 
CN(C)C1(c2ccccc2)CC=C(c2[nH]c3ccc([N+](=O)[O-])cc3c2CCO)CC1 (racemic) | 23% | 10% | 
CN(C)C1(c2ccccc2)CC=C(c2[nH]c3ccc(F)cc3c2CCn2ccnn2)CC1 (racemic) | 86% | 52% | 
Cc1c(C2=CCC(c3ccccc3)(N(C)C)CC2)[nH]c2ccccc12 (racemic) | 51% | 16% | 
CCCCC1(N(C)C)CC=C(c2[nH]c3ccc(F)cc3c2C)CC1 (racemic) | 93% | 58% | 
CN(C)C1(Cc2ccccc2)CC=C(c2[nH]c3ccccc3c2CCCO)CC1 (racemic) | 95% | 64% | 
CN(C)C1(c2ccccc2)CC=C(c2cn(CCO)c3ccccc23)CC1 (racemic) |  | 20% | Ki (human μ opiate receptor): 0.81 µM
Cc1c(C2=CCC(Cc3ccccc3)(N(C)C)CC2)[nH]c2ccc(C#N)cc12 (racemic) | 62% |  | 
CC(=O)NCCc1c(C2=CCC(c3ccccc3)(N(C)C)CC2)[nH]c2ccccc12 (racemic) | 98% | 79% | 
CN(C)C1(Cc2ccccc2)CC=C(c2[nH]c3ccc(F)cc3c2CCN2CCCCC2)CC1 (racemic) | 90% | 31% | 
Cc1c(C2=CCC(c3cccs3)(N(C)C)CC2)[nH]c2ccccc12 (racemic) | 64% |  | 
CN(C)C1(c2cc3ccccc3s2)CC=C(c2[nH]c3ccc(F)cc3c2CCO)CC1 (racemic) | 64% |  | 
CN(C)C1(c2ccccc2)CC=C(c2[nH]c3ccccc3c2CCCO)CC1 (racemic) |  | 66% | Ki (human μ opiate receptor): 0.024 µM
2-(2-(4-(Dimethylamino)-4-phenylcyclohexyl)-1H-indol-3-yl)ethyl acetate | 62% | 23% | 
CN(C)C1(c2ccccc2)CC=C(c2oc3ccccc3c2CCS)CC1 (centres unmarked) |  | 56% | Ki (human μ opiate receptor): 0.032 µM
CN(C)C1(c2ccccc2)CCC(c2[nH]c3ccccc3c2CCN2C(=O)c3ccccc3C2=O)CC1 (centres unmarked) | 89% | 70% | 
CN(C)C1(c2ccccc2)CC=C(c2c(CCO)sc3ccccc23)CC1 (centres unmarked) |  | 65% | Ki (human μ opiate receptor): 0.21 µM
CN(C)C1(c2ccccc2)CC=C(c2[nH]c3ccccc3c2C2CC2)CC1 (racemic) | 41% | 17% | 
CN1CCN(C2(Cc3ccccc3)CC=C(c3[nH]c4ccc(F)cc4c3CCO)CC2)CC1 (racemic) | 21% |  | 
CCCCC1(N(C)C)CC=C(c2[nH]c3ccccc3c2Cc2ccccc2)CC1 (racemic) | 78% | 55% | 
CN(C)C1(c2ccccc2)CC=C(c2[nH]c3ccc(F)cc3c2CCN2CCCCC2)CC1 (racemic) | 83% | 66% | 
CCCCC1(N(C)C)CC=C(c2[nH]c3ccc(F)cc3c2CCN2CCCCC2)CC1 (racemic) | 98% | 80% | 
3-(2-(4-(Dimethylamino)-4-phenylcyclohexyl)-1H-indol-3-yl)propyl acetate [Example 185] |  |  | % inhibition (μ) at 1 μM (human μ opiate receptor; 1 µM): 65%; % inhibition (ORL1) at 1 μM (ORL1 receptor; 1 µM): 69%

Compound | % inhibition (μ) at 1 μM (human μ opiate receptor) | % inhibition (ORL1) at 1 μM (ORL1 receptor) | further results
CCCCC1(N(C)C)CCC(c2[nH]c3ccccc3c2CCNC(=O)CC(C)(C)C)CC1 (centres unmarked) | 96% | 78% | 
CCCCC1(N(C)C)CCC(c2[nH]c3ccc(F)cc3c2C)CC1 (centres unmarked) | 102% | 92% | 
Cc1c(C2=CCC(c3ccccc3)(N(C)C)CC2)oc2ccccc12 (centres unmarked) | 20% |  | 
CN(C)C1(c2ccccc2)CC=C(c2[nH]c3ccccc3c2CCCN)CC1 (racemic) |  |  | Ki (human μ opiate receptor): 0.0092 µM; Ki (ORL1 receptor): 0.02 µM
CCCCC1(N(C)C)CC=C(c2[nH]c3ccccc3c2C2CC2)CC1 (racemic) | 50% | 26% | 
CN(C)C1(Cc2ccccc2)CC=C(c2[nH]c3ccc(F)cc3c2CCn2ccnn2)CC1 (racemic) | 96% | 84% | 
CN(C)C1(c2ccccc2)CCC(c2c[nH]c3ccccc23)CC1 (centres unmarked) | 67% | 50% | 
CN(C)C1(Cc2ccccc2)CC=C(c2[nH]c3ccccc3c2CCc2ccncc2)CC1 (racemic) | 97% | 16% | 
CCCCC1(N2CCCC2)CC=C(c2[nH]c3ccccc3c2C)CC1 (racemic) | 20% |  | 
CN(C)C1(c2cccs2)CC=C(c2[nH]c3ccccc3c2CCc2ccncc2)CC1 (racemic) | 92% |  | 
CCCCC1(N(C)C)CC=C(c2[nH]c3ccccc3c2CC2CCCCC2)CC1 (racemic) |  | 11% | 
Cc1c(C2=CCC(Cc3ccccc3)(N(C)C)CC2)[nH]c2ccc(F)cc12 (racemic) | 61% |  | 
CN(C)C1(c2cccc(F)c2)CC=C(c2[nH]c3ccccc3c2CCc2ccncc2)CC1 (racemic) | 67% |  | 
CN(C)C1(Cc2ccccc2)CC=C(c2cc3ccccc3n2C)CC1 (centres unmarked) [Example 302, [1-Benzyl-4-(1-methyl-1H-indol-2-yl)cyclohex-3-enyl]dimethylamine] |  |  | Ki (ORL1 receptor): 0.13 µM
CN(C)C1(c2ccccn2)CC=C(c2c(CCO)sc3ccccc23)CC1 (centres unmarked) | 31% |  | 
CNC1(c2ccccc2)CC=C(c2[nH]c3ccccc3c2CCc2ccncc2)CC1 (racemic) | 85% |  | 
CN(C)C1(Cc2ccccc2)CC=C(c2[nH]c3ccccc3c2C2CC2)CC1 (racemic) | 30% |  | 
CCCCC1(N2CCCC2)CCC(c2[nH]c3ccccc3c2C)CC1 (centres unmarked) | 15% |  | 
CCCCC1(N2CCCC2)CC=C(c2[nH]c3ccccc3c2CCc2ccncc2)CC1 (racemic) | 35% |  | 
CCCCC1(N(C)C)CCC(c2[nH]c3ccc(C(F)(F)F)cc3c2C)CC1 (centres unmarked) | 21% |  | 
CN(C)C1(Cc2ccccc2)CC=C(c2[nH]c3ccccc3c2Cc2ccccc2)CC1 (racemic) | 13% |  | 
Cc1c(C2CCC(c3ccccc3)(N(C)C)CC2)sc2ccccc12 (centres unmarked) | 14% |  | 
Cc1c(C2=CCC(c3ccccc3)(N(C)C)CC2)sc2ccccc12 (centres unmarked) | 42% |  | 

Source: patent US8138187B2, “Substituted heteroaryl derivatives” (Gruenenthal GmbH, priority 2006, dated 2012)
